In patent US20120114667A1:
Residue numbers refer to the chain shown, from its start.

B1: 2A9.1A1 (antibody, IgG2, V domains shown)
VH: RVQLQESGPGLVKPTQTLSLTCTVSGGSIISGGYFWTWIRQHPGKGLEWIGYIYYSGSTYYSPSLKSRVTISVDTSKNQFSLKLSSVTAADTAVYYCTRAVPAAKGYYSYYGMDVWGQGTTVTVSS
VL: DIVMTQSPLSLPVTPGEPASISCRSSQSLLHSNGYNYLDWFLQKPGQSPQLLIYLGSNRASGVPDRFSGSGSGTDYTLKISRVEAEDVGVYYCMQALQTPFTFGPGTKVDIK
B2: 3C2.2A8 (antibody, IgG2, V domains shown)
VH: B1 VH
VL: B1 VL with Q43H, Y76F

Target: avb3 and avb5 integrins on A375M cells
Assay: cell-based or functional assay

Row | Binder | Osteopontin Adhesion (% inhibition) at 5 ug/ml, A375M cells [%] | Vitronectin Adhesion (% inhibition) at 5 ug/ml, A375M cells [%]
1 | B1 | -3 | 0
2 | B2 | -3 | 16
